SR-BI HDL uptake = inhibitors of SR-BI mediated HDL lipid uptake, primary screen, ldlA[mSR-BI] cells, fluorescence, single point. Scavenger receptor class B member 1 (Mus musculus), Q61009. ldlA[mSR-BI] CHO cells, DiI-HDL uptake fluorescence, 3 h. inhibition, % at 12.5 µM. hit rate 0.96% among 320,000. AID 488896, 2010;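 active = mean replicate inhibition of at least 70% and a set share of replicates each scoring 70 or more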;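 also: 0% = median of neutral control wells and 100% = median of positive control wells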
UUG fidelity = yeast start codon fidelity modulation; activity score, % at 18.7 µM; actives 0.13% (n = 350,000); S. cerevisiae UUG-firefly luciferase reporter, luminescence/redox ratio; AID 602363;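 active means replicate mean at a twofold rise or more, about +100% in these data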;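 further: firefly luciferase made from a UUG start codon reports start codon fidelity; reporter light over untreated wells divided by growth signal over untreated wells; some hits fall short of that in this replicate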
GSIS activator = GLuc luminescence reporter in INS-1E cells, primary screen for activators of glucose-dependent secretion of insulin; INS-1E GLuc reporter insulin secretion, 2-3 h; activation, % at 16.6 µM; hit rate 0.61% among 370,000;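 active = lowest replicate activation of at least 40%, so every replicate reaches that level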;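 also: 0% = median of neutral control wells and 100% = median of IBMX positive control wells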
SR-BI uptake up = activators of SR-BI mediated DiI-HDL uptake, primary screen, ldlA[mSR-BI] CHO cells, DiI fluorescence. activation, % at 12.5 µM. 3 h; 100 = double the neutral-control signal. hit rate 0.096% among 320,000;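 active = mean replicate activation of at least 60% and every replicate at or above 60%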;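 also: 0% = median plate neutral-control signal and 100% = twice that signal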
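Material: SR-BI-overexpressing, LDLR-lacking CHO cells | Dosing: Single compound concentration, delivered by pin transfer | Probe or stimulus: Labelled HDL, 10 µg/mL | Signal: Bottom-read cell fluorescence after medium removal, ex 550/em 595 nm | Schedule: 3 h, 37 °C | Evaluation: HDL uptake via cellular fluorescence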
* marks the source's active call; other numbers are inactive results; . = no result given. Only some compounds are listed: those with a hit (about 1.3% of all), similar ones and a draw of the others.

Short keys: A = SR-BI HDL uptake; B = UUG fidelity; C = GSIS activator; D = SR-BI uptake up
#1 COc1ccc(-c2cc(C(=O)NCC3CCCO3)c3ccccc3n2)cc1 (stereo unspecified)
  A: 62.9	B: .	C: -3.1	D: -62.9

#2 COc1ccc(-c2cc(C(=O)NCC3CCCO3)c3cc(C)ccc3n2)cc1 (stereo unspecified)
  A: 72.4*	B: 13.7	C: -21.3	D: -72.4

#3 COc1ccc(-c2csc(N(CC3CCCO3)C(=O)c3ccc(C)cc3)n2)cc1 (stereo unspecified)
  A: 76.6*	B: -2.9	C: .	D: -76.6

#4 C[C@H](CO)N1C[C@H](C)[C@H](CN(C)S(=O)(=O)c2ccc(F)cc2)Oc2ccc(N(C)C)cc2C1=O
  A: .	B: 6.3	C: 2.3	D: .

#5 C[C@@H]1CCCCO[C@H](CN(C)CC2CCCCC2)[C@H](C)CN([C@@H](C)CO)C(=O)c2cc(NS(=O)(=O)c3cn(C)cn3)ccc2O1
  A: .	B: -4.0	C: -1.0	D: .

#6 COc1ccc(/C(=C/c2ccc(OC(F)F)c(OC)c2)C(=O)O)cc1OC
  A: -55.2	B: .	C: 75.3*	D: 55.2

#7 COc1cc(/C=C(/C(=O)O)c2ccc(-c3ccccc3)cc2)cc(OC)c1OC
  A: 0.3	B: -1.0	C: 9.8	D: -0.3

#8 COc1cccc(-c2cnc3c(c2)C(=O)N([C@H](C)CO)C[C@H](C)[C@H](CN(C)C(=O)NC2CCCCC2)O3)c1
  A: .	B: -1.4	C: -12.0	D: .

#9 C[C@@H]1CN([C@H](C)CO)C(=O)c2cc(-c3cccnc3)cnc2O[C@@H]1CN(C)Cc1ccccc1
  A: .	B: .	C: 6.5	D: .

#10 C[C@@H](NC(=O)C[C@H]1CC[C@@H]2[C@H](COC[C@@H](O)CN2C(=O)Nc2cccc(F)c2)O1)c1ccccc1
  A: .	B: 2.6	C: -6.6	D: .

#11 CC(C)(C)c1cc(C(=O)N/N=C/c2ccccc2O)n(-c2ccccc2)n1
  A: 100.1*	B: .	C: -1.0	D: -100.1

#12 NNC(=O)c1cc(C23CC4CC(CC(C4)C2)C3)nc2ccccc12
  A: 88.8*	B: -21.9	C: 9.8	D: -88.8

#13 Nc1nc(-c2ccccc2)c(N=Nc2cccc3ccccc23)s1
  A: 133.8*	B: .	C: 2.9	D: -133.8

#14 Nc1nc(-c2ccccc2)c(N=Nc2ccccc2Cl)s1
  A: 88.3*	B: .	C: -8.4	D: -88.3

#15 CCCNC(=O)Nc1ccc2c(c1)C(=O)N(C)[C@@H]1CC[C@H](CC(=O)NC)O[C@@H]1CO2
  A: .	B: -10.6	C: 11.4	D: .

#16 O=C(NCCN1CCOCC1)/C(=C/c1ccccc1)NC(=O)c1ccccc1
  A: 1.9	B: -7.6	C: 47.4*	D: -1.9

#17 Cc1ccc(C(=O)N/C(=C/c2ccc(-c3cccc([N+](=O)[O-])c3)o2)C(=O)NC(C)(C)C)cc1
  A: 52.1	B: .	C: .	D: -52.1

#18 COc1ccc(C(=O)N/C(=C\c2ccc(-c3cccc([N+](=O)[O-])c3)o2)C(=O)NCCCN2CCOCC2)cc1
  A: .	B: -7.0	C: .	D: .

#19 Cc1ccc(C(=O)N/C(=C\c2ccc(-c3cccc([N+](=O)[O-])c3)o2)C(=O)NCCCN2CCOCC2)cc1
  A: 78.4*	B: -13.1	C: -16.1	D: -78.4

#20 Cc1ccc(C(=O)N/C(=C/c2ccc(-c3cccc([N+](=O)[O-])c3)o2)C(=O)NC(C)C)cc1
  A: 83.3*	B: .	C: .	D: -83.3

#21 O=C(NCCN1CCOCC1)/C(=C\c1ccc(F)cc1)NC(=O)c1ccccc1
  A: -11.4	B: -7.9	C: -2.4	D: 11.4

#22 CCCNC(=O)N[C@H]1CC[C@@H](CC(=O)NC2CCCCC2)O[C@H]1CO
  A: .	B: -18.5	C: 0.8	D: .

#23 O=C(Nc1ccccc1F)N[C@H]1CC[C@H](CCNC(=O)C2CCC2)O[C@H]1CO
  A: .	B: 0.4	C: 18.9	D: .

#24 CC1(C)CCC(=NNC(N)=S)CC1
  A: 60.5	B: -16.6	C: 19.7	D: -60.5

#25 NC(=S)NN=C1CCCCC12CCCC2
  A: 75.0*	B: -24.9	C: .	D: -75.0

#26 NC(=S)NN=C1CCC2(CCCCC2)CC1
  A: 84.9*	B: .	C: 22.3	D: -84.9

#27 Cc1ccc(-c2nc3c(c(SCC(=O)N4CCCC4)n2)COC(C)(C)C3)cc1
  A: .	B: -11.1	C: 44.3*	D: .

#28 COc1ccccc1CCNC(=O)c1cc(-c2ccncc2)nc2ccc(Br)cc12
  A: 77.5*	B: -6.7	C: 9.6	D: -77.4

#29 Cc1ccc(-c2cc(C(=O)NCc3cnn(C)c3)c3cc(Br)ccc3n2)cc1
  A: 40.3	B: -19.2	C: 334.9*	D: -40.3

#30 Cn1cc(CNC(=O)c2cc(-c3ccccc3)nc3ccc(Br)cc23)cn1
  A: 41.1	B: .	C: 8.8	D: -41.1

An excerpt of these results, with two lines to a compound:
Fields – SR-BI HDL uptake, UUG fidelity, GSIS activator, SR-BI uptake up
25. NC(=S)NN=C1CCCCC12CCCC2
 : 75.0*, -24.9, ., -75.0
21. O=C(NCCN1CCOCC1)/C(=C\c1ccc(F)cc1)NC(=O)c1ccccc1
 : -11.4, -7.9, -2.4, 11.4
24. CC1(C)CCC(=NNC(N)=S)CC1
 : 60.5, -16.6, 19.7, -60.5
27. Cc1ccc(-c2nc3c(c(SCC(=O)N4CCCC4)n2)COC(C)(C)C3)cc1
 : ., -11.1, 44.3*, .

The list goes on:
Short keys: A = SR-BI HDL uptake; B = UUG fidelity; C = GSIS activator; D = SR-BI uptake up
#31 COc1ccccc1C(=O)N1C[C@@H]2[C@H](c3ccccc31)[C@@H](CO)N2C(=O)C1CCCCC1
  A: .	B: 6.3	C: -4.9	D: .

#32 CCCC#Cc1cnc2c(c1)C(=O)N([C@@H](C)CO)C[C@@H](C)[C@H](CN(C)Cc1ccccc1F)O2
  A: .	B: .	C: -8.1	D: .

#33 CC(=O)Nc1ccc(N/C=C(\C#N)S(=O)(=O)c2ccc(Cl)cc2)cc1
  A: -6.4	B: 3.8	C: 4.0	D: 6.4

#34 CC(=O)Nc1ccc(/C=C(\C#N)S(=O)(=O)c2ccc(C)cc2)cc1
  A: -5.9	B: -13.6	C: 59.6*	D: 5.9

#35 O=C(CSc1nnc(-c2ccccc2O)n1Cc1ccccc1)NNC(=O)c1ccccc1O
  A: 87.7*	B: .	C: 8.0	D: -87.7

#36 O=C(CSc1nnc(-c2ccccc2)n1Cc1ccccc1)NNC(=O)c1ccccc1O
  A: 30.4	B: -23.0	C: -13.1	D: -30.4

#37 CCOC(=O)c1c(C)[nH]c(C(=O)OCc2csc(CC(=O)Nc3ccccc3C)n2)c1C
  A: 81.0*	B: .	C: 13.8	D: -81.0

#38 COc1ccc(NC(=O)Nc2ccc3c(c2)CC(=O)N([C@@H](C)CO)C[C@H](C)[C@@H](CN(C)Cc2ccc(C(=O)O)cc2)O3)cc1
  A: .	B: 5.8	C: 15.0	D: .

#39 O=C(/C=C/c1ccc(OCc2ccccc2)c(OCc2ccccc2)c1)c1cccnc1
  A: 83.7*	B: .	C: -10.1	D: -83.7

#40 COc1ccc(C=CC(=O)c2ccc(OCc3ccccc3)c(OC)c2)cc1OC
  A: .	B: -3.6	C: .	D: .

#41 Cc1ccc(O)c(C2=NOC(O)(C(F)(F)F)C2)c1 (stereo unspecified)
  A: -15.3	B: -11.7	C: 52.1*	D: .

#42 COC(=O)C[C@@H]1OC[C@H](C(C)C)N1S(=O)(=O)c1ccc(C)cc1
  A: .	B: .	C: 44.2*	D: .

#43 Cc1ccc(S(=O)(=O)N2[C@H](CC(=O)OCc3ccccc3)OC[C@@H]2C(C)C)cc1
  A: .	B: .	C: -0.9	D: .

#44 C[C@H](NC(=O)C[C@@H]1CC[C@@H](NC(=O)Nc2ccc3c(c2)OCO3)[C@@H](CO)O1)c1ccccc1
  A: .	B: -0.8	C: 15.7	D: .

#45 COc1cc(/C(C)=N\NC(=O)CSc2nc3ccccc3n2C)ccc1O
  A: 4.5	B: -17.0	C: 41.7*	D: -4.5

#46 CCn1c(SCC(=O)N/N=C/c2ccc(OC)c(OC)c2)nc2ccccc21
  A: 13.0	B: -6.0	C: 84.4*	D: -13.0

#47 COc1ccc(Cc2nc3ccccc3n2CC(=O)N/N=C/c2ccccc2)cc1OC
  A: -0.3	B: .	C: -13.1	D: 0.3

#48 COc1ccc(/C=N/NC(=O)CN(C2=NS(=O)(=O)c3ccccc32)c2ccccc2)cc1OC
  A: 13.4	B: .	C: 59.8*	D: -13.4
